IC50 data for 22 compounds are collected here from US9242993B2, “Morpholino substituted bicyclic pyrimidine urea or carbamate derivatives as mTOR inhibitors” (CELLZOME LIMITED, priority 2011, dated 2016).

The chains behind the UniProt entries cited, without tags or fusion partners. Where a name states a change or a piece, a line headed by the entry shows the natural chain unless it says otherwise.
UniProt P42336, whole entry: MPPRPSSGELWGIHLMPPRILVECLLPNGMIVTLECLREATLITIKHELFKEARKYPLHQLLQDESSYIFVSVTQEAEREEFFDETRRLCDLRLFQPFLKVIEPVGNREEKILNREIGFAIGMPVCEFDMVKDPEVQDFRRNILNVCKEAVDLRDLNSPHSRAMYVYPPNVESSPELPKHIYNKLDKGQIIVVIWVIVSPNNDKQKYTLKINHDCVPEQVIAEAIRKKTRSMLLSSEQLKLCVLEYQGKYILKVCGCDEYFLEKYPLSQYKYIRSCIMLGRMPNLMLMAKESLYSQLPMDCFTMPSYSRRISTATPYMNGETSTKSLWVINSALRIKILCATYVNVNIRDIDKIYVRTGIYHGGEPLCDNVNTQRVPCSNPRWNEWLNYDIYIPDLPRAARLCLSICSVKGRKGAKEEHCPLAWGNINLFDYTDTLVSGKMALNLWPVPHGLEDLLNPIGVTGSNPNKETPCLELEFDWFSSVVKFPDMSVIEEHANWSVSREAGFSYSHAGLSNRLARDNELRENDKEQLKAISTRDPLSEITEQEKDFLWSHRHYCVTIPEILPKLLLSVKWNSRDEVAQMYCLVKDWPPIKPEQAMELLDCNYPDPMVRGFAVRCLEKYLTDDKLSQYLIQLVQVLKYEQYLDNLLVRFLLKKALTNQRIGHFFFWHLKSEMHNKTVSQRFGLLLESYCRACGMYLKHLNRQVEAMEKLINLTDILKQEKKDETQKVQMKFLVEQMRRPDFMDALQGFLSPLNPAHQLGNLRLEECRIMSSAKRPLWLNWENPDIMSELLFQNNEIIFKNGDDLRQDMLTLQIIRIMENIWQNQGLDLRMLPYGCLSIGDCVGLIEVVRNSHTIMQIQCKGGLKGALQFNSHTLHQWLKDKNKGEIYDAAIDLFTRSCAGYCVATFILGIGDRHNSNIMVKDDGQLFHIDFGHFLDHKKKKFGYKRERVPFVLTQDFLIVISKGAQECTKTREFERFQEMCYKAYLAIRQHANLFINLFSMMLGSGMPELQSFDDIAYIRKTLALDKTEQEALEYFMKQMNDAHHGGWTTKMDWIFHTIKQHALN
UniProt P42338: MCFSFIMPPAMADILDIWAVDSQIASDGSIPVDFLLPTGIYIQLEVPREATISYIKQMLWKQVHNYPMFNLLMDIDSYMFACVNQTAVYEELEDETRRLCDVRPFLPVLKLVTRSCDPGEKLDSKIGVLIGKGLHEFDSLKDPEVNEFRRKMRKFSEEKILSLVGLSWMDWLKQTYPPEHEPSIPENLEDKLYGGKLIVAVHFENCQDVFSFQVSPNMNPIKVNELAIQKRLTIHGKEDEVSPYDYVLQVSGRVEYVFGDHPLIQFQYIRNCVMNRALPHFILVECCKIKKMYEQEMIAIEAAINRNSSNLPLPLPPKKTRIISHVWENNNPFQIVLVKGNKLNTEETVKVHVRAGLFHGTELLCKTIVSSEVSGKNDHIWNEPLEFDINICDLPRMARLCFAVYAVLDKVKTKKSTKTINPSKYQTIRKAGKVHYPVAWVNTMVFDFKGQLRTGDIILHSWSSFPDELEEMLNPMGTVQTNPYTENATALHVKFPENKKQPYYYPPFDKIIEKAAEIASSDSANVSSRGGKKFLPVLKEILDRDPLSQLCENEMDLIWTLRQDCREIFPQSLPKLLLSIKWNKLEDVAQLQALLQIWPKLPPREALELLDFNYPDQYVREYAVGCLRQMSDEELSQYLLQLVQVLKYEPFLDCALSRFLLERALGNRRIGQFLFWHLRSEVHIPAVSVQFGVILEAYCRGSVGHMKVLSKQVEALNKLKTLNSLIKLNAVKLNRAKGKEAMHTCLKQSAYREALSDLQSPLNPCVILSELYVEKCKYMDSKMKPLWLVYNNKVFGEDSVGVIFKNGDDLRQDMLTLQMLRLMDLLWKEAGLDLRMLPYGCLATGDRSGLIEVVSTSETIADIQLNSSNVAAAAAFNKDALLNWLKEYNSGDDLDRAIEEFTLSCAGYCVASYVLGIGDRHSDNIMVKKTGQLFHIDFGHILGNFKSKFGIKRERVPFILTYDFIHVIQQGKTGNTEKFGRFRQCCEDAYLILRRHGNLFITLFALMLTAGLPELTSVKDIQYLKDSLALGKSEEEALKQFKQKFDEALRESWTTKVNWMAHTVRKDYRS
UniProt P48736: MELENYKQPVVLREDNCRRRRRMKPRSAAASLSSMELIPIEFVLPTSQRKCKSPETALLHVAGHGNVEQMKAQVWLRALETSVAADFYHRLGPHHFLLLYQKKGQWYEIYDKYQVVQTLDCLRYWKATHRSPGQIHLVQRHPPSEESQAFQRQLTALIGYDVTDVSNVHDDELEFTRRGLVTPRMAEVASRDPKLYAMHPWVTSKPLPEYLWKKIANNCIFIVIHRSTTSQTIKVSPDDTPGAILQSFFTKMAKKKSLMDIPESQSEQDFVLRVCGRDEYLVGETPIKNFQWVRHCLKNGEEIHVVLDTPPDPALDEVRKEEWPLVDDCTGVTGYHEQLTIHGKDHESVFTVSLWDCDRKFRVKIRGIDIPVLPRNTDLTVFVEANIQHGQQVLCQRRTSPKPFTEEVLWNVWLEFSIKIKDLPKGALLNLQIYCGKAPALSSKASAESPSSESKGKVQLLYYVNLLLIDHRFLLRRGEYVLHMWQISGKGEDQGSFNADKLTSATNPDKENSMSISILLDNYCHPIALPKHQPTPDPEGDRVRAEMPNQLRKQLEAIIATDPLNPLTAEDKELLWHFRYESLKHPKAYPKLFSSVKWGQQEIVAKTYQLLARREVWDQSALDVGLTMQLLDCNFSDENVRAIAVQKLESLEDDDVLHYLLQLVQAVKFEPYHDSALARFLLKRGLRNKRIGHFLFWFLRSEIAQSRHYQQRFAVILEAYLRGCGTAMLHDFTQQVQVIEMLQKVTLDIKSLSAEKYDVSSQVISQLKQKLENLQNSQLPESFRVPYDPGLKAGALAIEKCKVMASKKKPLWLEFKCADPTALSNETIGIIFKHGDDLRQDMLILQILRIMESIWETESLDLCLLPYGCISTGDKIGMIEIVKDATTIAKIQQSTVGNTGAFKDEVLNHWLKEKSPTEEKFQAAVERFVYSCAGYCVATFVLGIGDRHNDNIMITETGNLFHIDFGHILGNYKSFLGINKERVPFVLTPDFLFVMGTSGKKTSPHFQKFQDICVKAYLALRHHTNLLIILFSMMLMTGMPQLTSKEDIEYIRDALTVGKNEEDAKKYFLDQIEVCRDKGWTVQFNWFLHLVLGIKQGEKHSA
UniProt O00329: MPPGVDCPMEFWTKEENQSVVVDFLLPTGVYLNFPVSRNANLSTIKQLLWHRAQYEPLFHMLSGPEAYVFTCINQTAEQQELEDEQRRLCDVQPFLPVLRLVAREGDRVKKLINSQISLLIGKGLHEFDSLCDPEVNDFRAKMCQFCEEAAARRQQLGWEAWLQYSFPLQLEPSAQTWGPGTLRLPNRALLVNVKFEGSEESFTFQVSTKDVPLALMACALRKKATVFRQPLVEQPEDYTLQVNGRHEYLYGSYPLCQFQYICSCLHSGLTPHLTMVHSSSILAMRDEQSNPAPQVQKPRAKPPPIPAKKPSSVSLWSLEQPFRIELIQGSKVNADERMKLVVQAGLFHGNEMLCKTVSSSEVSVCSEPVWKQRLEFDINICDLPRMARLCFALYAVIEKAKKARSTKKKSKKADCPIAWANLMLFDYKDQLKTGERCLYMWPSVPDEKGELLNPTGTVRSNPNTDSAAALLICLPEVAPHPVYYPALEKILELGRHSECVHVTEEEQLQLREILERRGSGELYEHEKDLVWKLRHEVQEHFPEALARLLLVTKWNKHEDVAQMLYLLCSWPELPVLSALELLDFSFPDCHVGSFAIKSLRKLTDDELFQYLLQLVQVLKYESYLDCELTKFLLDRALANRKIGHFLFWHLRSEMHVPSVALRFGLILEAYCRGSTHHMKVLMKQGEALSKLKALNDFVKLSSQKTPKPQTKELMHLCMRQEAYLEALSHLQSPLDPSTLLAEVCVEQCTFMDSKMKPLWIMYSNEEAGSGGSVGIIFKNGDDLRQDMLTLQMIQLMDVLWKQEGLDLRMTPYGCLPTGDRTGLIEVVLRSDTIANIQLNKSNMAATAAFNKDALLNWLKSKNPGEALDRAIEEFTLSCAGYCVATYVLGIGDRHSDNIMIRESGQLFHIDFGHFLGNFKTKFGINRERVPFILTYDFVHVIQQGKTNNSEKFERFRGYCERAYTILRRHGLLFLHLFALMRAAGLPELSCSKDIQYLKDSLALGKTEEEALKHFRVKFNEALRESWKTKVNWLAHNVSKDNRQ

Each structure is given as a SMILES string. A value given as a limit tells only on which side of the number the result lay.

Common to all, as to assay type: binding
The target of one assay is PI3K alpha (PI3Ka) (Homo sapiens, UniProt P42336). Nature of the assay: kinobeads assay, PI3K alpha. To be noted: Jurkat cell lysate, read-out: PI3Ka inhibition value (IC50), activity level.
The next assay concerns the target PI3K beta (PI3 Kb) (Homo sapiens, UniProt P42338). Description: kinobeads assay, PI3K beta. The conditions noted are these: Jurkat cell lysate, read-out: PI3Kb inhibition value (IC50), activity level.
For another assay, the target named is PI3K gamma (PI3 Kg) (Homo sapiens, UniProt P48736). Description: kinobeads assay, PI3K gamma. To be noted: Jurkat cell lysate, read-out: PI3Kg inhibition value (IC50), activity level.
Another assay deals with PI3K delta (PI3 Kd) (Homo sapiens, UniProt O00329). Description: kinobeads assay, PI3K delta. The conditions noted are these: Jurkat cell lysate, read-out: PI3Kd inhibition value (IC50), activity level.

On to `C[C@H]1COCCN1c1nc(-c2ccc(NC(=O)NC3CC3)cc2)nc2c1CS(=O)(=O)C2` [Example 2, (S)-1-cyclopropyl-3-(4-(4-(3-methylmorpholino)-6,6-dioxido-5,7-dihydrothieno[3,4-d]pyrimidin-2-yl)phenyl)urea], for which the 50% inhibitory concentration (IC50) at PI3K alpha (PI3Ka), at PI3K beta (PI3 Kb), on PI3K gamma (PI3 Kg) and on PI3K delta (PI3 Kd) was greater than 10 µM throughout.

As for `C[C@H]1COCCN1c1nc(-c2ccc(NC(=O)NCCO)cc2)nc2c1CS(=O)(=O)C2` [Example 13, (S)-1-(2-hydroxyethyl)-3-(4-(4-(3-methylmorpholino)-6,6-dioxido-5,7-dihydrothieno[3,4-d]pyrimidin-2-yl)phenyl)urea], the IC50 at PI3K alpha (PI3Ka) is 1 to 10 µM; at PI3K beta (PI3 Kb) it was greater than 10 µM; on PI3K gamma (PI3 Kg), greater than 10 µM; at PI3K delta (PI3 Kd) it was greater than 10 µM.

For `CC1c2c(nc(-c3ccc(NC(=O)NC4CC4)cc3)nc2N2C3CCC2COC3)CS1(=O)=O` (stereo not shown) [Example 33, 1-(4-(4-(3-oxa-8-azabicyclo[3.2.1]octan-8-yl)-5-methyl-6,6-dioxido-5,7-dihydrothieno[3,4-d]pyrimidin-2-yl)phenyl)-3-cyclopropylurea], the IC50 on PI3K alpha (PI3Ka), on PI3K beta (PI3 Kb), on PI3K gamma (PI3 Kg) and at PI3K delta (PI3 Kd) was greater than 10 µM each time.

On to `CC[C@H]1COCCN1c1nc(-c2ccc(NC(=O)NC)c(F)c2)nc2c1CS(=O)(=O)C2(C)C` [Example 64, (S)-1-(4-(4-(3-ethylmorpholino)-7,7-dimethyl-6,6-dioxido-5,7-dihydrothieno[3,4-d]pyrimidin-2-yl)-2-fluorophenyl)-3-methylurea], for which the IC50 on PI3K alpha (PI3Ka) was 1 to 10 µM; on PI3K beta (PI3 Kb) it was greater than 10 µM; at PI3K gamma (PI3 Kg) it was greater than 10 µM; on PI3K delta (PI3 Kd) it was greater than 10 µM.

Take `CC1Cc2nc(-c3ccc(NC(=O)NC4CC4)cc3)nc(N3CCOC[C@@H]3C)c2CS1(=O)=O` (stereo partly drawn) [Example 71, 1-cyclopropyl-3-(4-(7-methyl-4-((S)-3-methylmorpholino)-6,6-dioxido-7,8-dihydro-5H-thiopyrano[4,3-d]pyrimidin-2-yl)phenyl)urea]: the IC50 at PI3K alpha (PI3Ka), on PI3K beta (PI3 Kb), on PI3K gamma (PI3 Kg) and on PI3K delta (PI3 Kd) was greater than 10 µM each time.

With `C[C@H]1COCCN1c1nc(-c2ccc(NC(=O)NC3COC3)cc2)nc2c1CS(=O)(=O)C2(C)C` [Example 68, (S)-1-(4-(7,7-dimethyl-4-(3-methylmorpholino)-6,6-dioxido-5,7-dihydrothieno[3,4-d]pyrimidin-2-yl)phenyl)-3-(oxetan-3-yl)urea], the IC50 at PI3K alpha (PI3Ka), on PI3K beta (PI3 Kb), on PI3K gamma (PI3 Kg) and on PI3K delta (PI3 Kd) was greater than 10 µM each time.

With `O=C(NCCO)Nc1ccc(-c2nc3c(c(N4CC5CCC(C4)O5)n2)CS(=O)(=O)C3)cc1` [Example 16, 1-(4-(4-(8-oxa-3-azabicyclo[3.2.1]octan-3-yl)-6,6-dioxido-5,7-dihydrothieno[3,4-d]pyrimidin-2-yl)phenyl)-3-(2-hydroxyethyl)urea], the IC50 at PI3K alpha (PI3Ka), on PI3K beta (PI3 Kb), at PI3K gamma (PI3 Kg) and at PI3K delta (PI3 Kd) was greater than 10 µM in each case.

On to `CCNC(=O)Nc1ccc(-c2nc3c(c(N4CCOC[C@@H]4C)n2)C(C)S(=O)(=O)C3)cc1F` (stereo partly drawn) [Example 50, 1-ethyl-3-(2-fluoro-4-(5-methyl-4-((S)-3-methylmorpholino)-6,6-dioxido-5,7-dihydrothieno[3,4-d]pyrimidin-2-yl)phenyl)urea], for which the IC50 on PI3K alpha (PI3Ka), at PI3K beta (PI3 Kb), at PI3K gamma (PI3 Kg) and on PI3K delta (PI3 Kd) was greater than 10 µM in each case.

`CCNC(=O)Nc1ccc(-c2nc3c(c(N4CCOC[C@@H]4C)n2)[C@@H](C)S(=O)(=O)C3)cc1` [Example 39, 1-ethyl-3-(4-((R)-5-methyl-4-((S)-3-methylmorpholino)-6,6-dioxido-5,7-dihydrothieno[3,4-d]pyrimidin-2-yl)phenyl)urea]: the IC50 is 1 to 10 µM at PI3K alpha (PI3Ka), greater than 10 µM on PI3K beta (PI3 Kb), greater than 10 µM at PI3K gamma (PI3 Kg) and greater than 10 µM on PI3K delta (PI3 Kd).

`C[C@H]1COCCN1c1nc(-c2ccc(NC(=O)NC3CC3)cc2)nc2c1CS(=O)(=O)C2(C)C` [Example 30, (S)-1-cyclopropyl-3-(4-(7,7-dimethyl-4-(3-methylmorpholino)-6,6-dioxido-5,7-dihydrothieno[3,4-d]pyrimidin-2-yl)phenyl)urea]: the IC50 on PI3K alpha (PI3Ka), on PI3K beta (PI3 Kb), at PI3K gamma (PI3 Kg) and at PI3K delta (PI3 Kd) was greater than 10 µM throughout.

Regarding `C[C@H]1COCCN1c1nc(-c2ccc(NC(=O)NC3CC3)cc2)nc2c1CSC2` [Example 1, (S)-1-cyclopropyl-3-(4-(4-(3-methylmorpholino)-5,7-dihydrothieno[3,4-d]pyrimidin-2-yl)phenyl)urea], the IC50 at PI3K alpha (PI3Ka), at PI3K beta (PI3 Kb), at PI3K gamma (PI3 Kg) and on PI3K delta (PI3 Kd) was greater than 10 µM each time.

On to `CC1Cc2nc(-c3ccc(NC(=O)NC4CC4)cc3)nc(N3CCOC[C@@H]3C)c2C(C)S1(=O)=O` (stereo partly drawn) [Example 72, 1-cyclopropyl-3-(4-(5,7-dimethyl-4-((S)-3-methylmorpholino)-6,6-dioxido-7,8-dihydro-5H-thiopyrano[4,3-d]pyrimidin-2-yl)phenyl)urea], for which the IC50 on PI3K alpha (PI3Ka), at PI3K beta (PI3 Kb), on PI3K gamma (PI3 Kg) and at PI3K delta (PI3 Kd) was greater than 10 µM each time.

Regarding `CCC1c2c(nc(-c3ccc(NC(=O)NC4CC4)cc3)nc2N2CCOC[C@@H]2C)CS1(=O)=O` (stereo partly drawn) [Example 49, 1-cyclopropyl-3-(4-(5-ethyl-4-((S)-3-methylmorpholino)-6,6-dioxido-5,7-dihydrothieno[3,4-d]pyrimidin-2-yl)phenyl)urea], the IC50 is 1 to 10 µM at PI3K alpha (PI3Ka), 1 to 10 µM on PI3K beta (PI3 Kb), greater than 10 µM at PI3K gamma (PI3 Kg) and greater than 10 µM on PI3K delta (PI3 Kd).

In the case of `CCNC(=O)Nc1ccc(-c2nc(N3C4CCC3COC4)c3c(n2)C(C)(C)S(=O)(=O)C3)cc1` [Example 60, 1-(4-(4-(3-oxa-8-azabicyclo[3.2.1]octan-8-yl)-7,7-dimethyl-6,6-dioxido-5,7-dihydrothieno[3,4-d]pyrimidin-2-yl)phenyl)-3-ethylurea], the IC50 at PI3K alpha (PI3Ka), on PI3K beta (PI3 Kb), on PI3K gamma (PI3 Kg) and at PI3K delta (PI3 Kd) was greater than 10 µM each time.

For the compound `CCC1COCCN1c1nc(-c2ccc(NC(=O)NC3CC3)cc2)nc2c1C(C)S(=O)(=O)C2` (stereo not shown) [Example 32, 1-cyclopropyl-3-(4-(4-(3-ethylmorpholino)-5-methyl-6,6-dioxido-5,7-dihydrothieno[3,4-d]pyrimidin-2-yl)phenyl)urea], the IC50 on PI3K alpha (PI3Ka), at PI3K beta (PI3 Kb), on PI3K gamma (PI3 Kg) and on PI3K delta (PI3 Kd) was greater than 10 µM each time.

For the compound `CCNC(=O)Nc1ccc(-c2nc3c(c(N4CCOC[C@@H]4CC)n2)CS(=O)(=O)C3C)cc1` (stereo partly drawn) [Example 41, 1-ethyl-3-(4-(4-((S)-3-ethylmorpholino)-7-methyl-6,6-dioxido-5,7-dihydrothieno[3,4-d]pyrimidin-2-yl)phenyl)urea], the concentration for half-maximal inhibition (IC50) was 1 to 10 µM at PI3K alpha (PI3Ka), greater than 10 µM at PI3K beta (PI3 Kb), greater than 10 µM on PI3K gamma (PI3 Kg) and greater than 10 µM on PI3K delta (PI3 Kd).

For the compound `CNC(=O)Nc1ccc(-c2nc3c(c(N4CCOC[C@@H]4C)n2)C(C)S(=O)(=O)C3)cc1` (stereo partly drawn) [Example 58, 1-methyl-3-(4-(5-methyl-4-((S)-3-methylmorpholino)-6,6-dioxido-5,7-dihydrothieno[3,4-d]pyrimidin-2-yl)phenyl)urea], the IC50 at PI3K alpha (PI3Ka), at PI3K beta (PI3 Kb), on PI3K gamma (PI3 Kg) and at PI3K delta (PI3 Kd) was greater than 10 µM throughout.

Turning to `CC[C@H]1COCCN1c1nc(-c2ccc(NC(=O)NC3CC3)cc2)nc2c1CS(=O)(=O)C2(C)C` [Example 51, (S)-1-cyclopropyl-3-(4-(4-(3-ethylmorpholino)-7,7-dimethyl-6,6-dioxido-5,7-dihydrothieno[3,4-d]pyrimidin-2-yl)phenyl)urea], the IC50 at PI3K alpha (PI3Ka), on PI3K beta (PI3 Kb), on PI3K gamma (PI3 Kg) and at PI3K delta (PI3 Kd) was greater than 10 µM each time.

With `CNC(=O)Nc1ccc(-c2nc3c(c(N4CCOC[C@@H]4C)n2)CS(=O)(=O)C3)cc1` [Example 12, (S)-1-methyl-3-(4-(4-(3-methylmorpholino)-6,6-dioxido-5,7-dihydrothieno[3,4-d]pyrimidin-2-yl)phenyl)urea], the IC50 on PI3K alpha (PI3Ka) was 1 to 10 µM; at PI3K beta (PI3 Kb), greater than 10 µM; on PI3K gamma (PI3 Kg), greater than 10 µM; at PI3K delta (PI3 Kd), greater than 10 µM.

Regarding `CC1c2c(nc(-c3ccc(NC(=O)NCC4CC4)cc3)nc2N2CCOC[C@@H]2C)CS1(=O)=O` (stereo partly drawn) [Example 46, 1-(cyclopropylmethyl)-3-(4-(5-methyl-4-((S)-3-methylmorpholino)-6,6-dioxido-5,7-dihydrothieno[3,4-d]pyrimidin-2-yl)phenyl)urea], the IC50 at PI3K alpha (PI3Ka) is 1 to 10 µM; at PI3K beta (PI3 Kb), 1 to 10 µM; at PI3K gamma (PI3 Kg), greater than 10 µM; at PI3K delta (PI3 Kd), greater than 10 µM.

Consider `C[C@@H]1COCCN1c1nc(-c2ccc(NC(=O)NC3CC3)cc2)nc2c1[C@H](C)S(=O)(=O)C2` [Example 63, 1-cyclopropyl-3-(4-((S)-5-methyl-4-((R)-3-methylmorpholino)-6,6-dioxido-5,7-dihydrothieno[3,4-d]pyrimidin-2-yl)phenyl)urea], for which the IC50 at PI3K alpha (PI3Ka), at PI3K beta (PI3 Kb), on PI3K gamma (PI3 Kg) and at PI3K delta (PI3 Kd) was greater than 10 µM each time.

Consider `C[C@H]1COCCN1c1nc(-c2ccc(NC(=O)NCCF)cc2)nc2c1CS(=O)(=O)C2(C)C` [Example 61, (S)-1-(4-(7,7-dimethyl-4-(3-methylmorpholino)-6,6-dioxido-5,7-dihydrothieno[3,4-d]pyrimidin-2-yl)phenyl)-3-(2-fluoroethyl)urea], for which the IC50 on PI3K alpha (PI3Ka), on PI3K beta (PI3 Kb), at PI3K gamma (PI3 Kg) and on PI3K delta (PI3 Kd) was greater than 10 µM throughout.

A word on the IC50: it is the concentration that inhibits the measured activity by half.
